The assay concerns the target 5-hydroxytryptamine receptor 7 (Rattus norvegicus, UniProt P32305).

Sequences of proteins named here, by UniProt entry; tags and fusion partners are left off.
UniProt P32305, whole entry: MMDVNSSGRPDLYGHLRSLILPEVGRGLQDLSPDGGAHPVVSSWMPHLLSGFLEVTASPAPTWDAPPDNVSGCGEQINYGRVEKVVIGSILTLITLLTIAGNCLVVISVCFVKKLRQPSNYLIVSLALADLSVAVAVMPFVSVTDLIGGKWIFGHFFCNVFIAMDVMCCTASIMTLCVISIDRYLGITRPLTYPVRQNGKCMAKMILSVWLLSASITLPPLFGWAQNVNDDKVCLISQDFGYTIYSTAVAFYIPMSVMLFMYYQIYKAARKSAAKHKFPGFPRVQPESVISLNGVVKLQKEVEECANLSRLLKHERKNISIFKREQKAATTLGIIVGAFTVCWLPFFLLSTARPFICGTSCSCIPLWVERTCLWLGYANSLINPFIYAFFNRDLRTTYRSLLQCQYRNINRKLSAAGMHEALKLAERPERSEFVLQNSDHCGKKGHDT

pKi: −log10 of the molar value.

In general, pKi refers to the negative decadic logarithm of the Ki, by convention in mol/L. Low values mean a high Ki, high ones a low Ki.

As to `CCN(CC)C(=O)[C@@H]1C=C2c3cccc4[nH]cc(c34)C[C@H]2N(C)C1` [(4R,7R)-N,N-diethyl-6-methyl-6,11-diazatetracyclo[7.6.1.0^{2,7}.0^{12,16}]hexadeca-1(16),2,9,12,14-pentaene-4-carboxamide], the pKi was 8.02.

The values above are taken from BindingDB's records for doi:10.1073/pnas.90.18.8547 (U. 109, 1993).
